The target of the experiment is partially purified pig heart adenosine kinase (Sus scrofa, UniProt A0A5G2R0F5). Kind of experiment: biochemical. As to conditions: 0.5 μM adenosine, pH 7.0, 20 minutes at 37° C, read-out: AK Inhibition (IC50). The method, then: Adenosine kinase activity was measured essentially as described by Yamada et al Biochim. Biophys. Acta 660, 36-43 (1988) with a few minor modifications. Assay mixtures contained 50 mM TRIS-maleate buffer, pH 7.0, 0.1% BSA, 1 mM ATP 1 mM MgCl2, 0.5 μM [U-^14 C] adenosine (400-600 mCi/mmol) and varying duplicate concentrations of inhibitor. The reactions were initiated by addition of approximately 0.1 μU partially purified pig heart adenosine kinase, where one unit is defined as that amount of enzyme required to phosphorylate 1 μmol adenosine per minute. The reactions were incubated for 20 minutes at 37° C. The assay was quenched upon spotting 30 μL aliquots onto 2 cm^2 pieces of Whatman DE81 anion exchange paper. The paper squares were washed for 3 minutes in 6 L distilled/deionized water to remove the unreacted adenosine. […] The amount of ^14 C-AMP was quantified by scintillation counting.

Protein sequences, listed by entry. Tags and fused reporters are not part of them. Residues count along the entry.
UniProt A0A5G2R0F5, 1-362: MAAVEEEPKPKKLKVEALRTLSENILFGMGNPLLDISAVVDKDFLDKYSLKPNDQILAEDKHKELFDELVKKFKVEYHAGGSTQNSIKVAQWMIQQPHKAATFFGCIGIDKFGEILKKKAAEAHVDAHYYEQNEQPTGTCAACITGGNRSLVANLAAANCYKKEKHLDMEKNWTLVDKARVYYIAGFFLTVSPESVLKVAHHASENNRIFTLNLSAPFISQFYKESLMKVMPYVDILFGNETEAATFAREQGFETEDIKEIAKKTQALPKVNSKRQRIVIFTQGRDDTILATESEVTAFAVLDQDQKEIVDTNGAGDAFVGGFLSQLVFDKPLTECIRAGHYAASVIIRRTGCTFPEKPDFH

Molecules are shown by their SMILES.

Take `C[C@H]1O[C@@H](n2cc(I)c3c(NCc4ccncc4)ncnc32)[C@H](O)[C@@H]1O` [Compound 42, 4-N-(4-pyridylmethylamino)-5-iodo-7-(5-deoxy-1-β-D-ribofuranosyl)pyrrolo[2,3-d]pyrimidine]: the IC50 was found to be 75 nM.

Broadly, the IC50 is the point on the concentration scale where inhibition reaches its midpoint.

The values are drawn from patent publication US5726302A, “Water soluble adenosine kinase inhibitors” (Gensia Inc., priority 1995, dated 1998).
